Yeast mating assay B: variants of the scFv Ab-14

Reference: Li et al. 2023, doi:10.1038/s41467-023-39022-2. File: FLAb, binding data.

Antigen: PDVDLGDISGINAS, a 14-residue peptide of the SARS-CoV-2 spike HR2 region.

Each scFv is VH, the linker GGGGSGGGGSGGGGS, VL, as in the parent Ab-14, and differs from it in the CDRs of the heavy chain only.
VH: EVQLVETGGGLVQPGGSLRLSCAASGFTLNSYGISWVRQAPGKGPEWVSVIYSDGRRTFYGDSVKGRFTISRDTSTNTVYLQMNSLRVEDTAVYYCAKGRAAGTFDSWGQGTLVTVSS
VL: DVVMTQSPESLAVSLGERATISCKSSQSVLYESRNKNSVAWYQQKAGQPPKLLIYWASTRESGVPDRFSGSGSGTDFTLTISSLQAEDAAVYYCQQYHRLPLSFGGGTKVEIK

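This is the validation round: designs drawn from the data on random variants, tested in the same kind of assay. Several design methods are mixed in this list. Affinity was read by AlphaSeq, a pooled yeast mating assay with surface-displayed partners. Mating (16 h, 30 °C) was followed by selection of diploids and sequencing of their barcodes. The ratio of observed to expected reads was calibrated, replicate by replicate, on BCL2-family standards whose Kd was known from biolayer interferometry. Each pool was mated in six replicate cultures.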

Each variant's VH is given in full. Values are log10 of the apparent Kd in nM; lower means stronger binding. Averages over replicates are reported, and they cover detected replicates only. "not detected" means that the variant was in the library but no mating with the target was seen in any replicate; the authors take this as a sign of poor binding, and no number exists. Of ten entries with the parent sequence, four were seen in most replicates (averages 0.34 to 2.37), three in one and three in none, so single entries are noisy.

log10 Kd (nM), mean	replicates with signal	VH
0.15	6/6	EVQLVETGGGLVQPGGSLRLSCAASGFDLNEYGISWVRQAPGKGPEWVSVIYADGRRTFYADSVKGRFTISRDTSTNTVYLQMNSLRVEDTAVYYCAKGNAAGTFLVWGQGTLVTVSS
-0.48	6/6	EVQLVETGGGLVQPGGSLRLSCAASGFDLNEYGISWVRQAPGKGPEWVSVIYADGRRTAYIDSVKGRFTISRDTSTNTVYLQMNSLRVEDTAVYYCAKGEQAGTFDLWGQGTLVTVSS
not detected	0/6	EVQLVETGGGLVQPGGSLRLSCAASGFTINSYGISWVRQAPGKGPEWVSVIYSDGRRTFYGDAVKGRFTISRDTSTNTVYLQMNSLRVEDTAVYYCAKGRAAGTFKSWGQGTLVTVSS
-0.01	6/6	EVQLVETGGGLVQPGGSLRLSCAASGFELNSYGISWVRQAPGKGPEWVSVIYSDGRRTFYADSVKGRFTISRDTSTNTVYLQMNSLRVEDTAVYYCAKGNTAGTFDSWGQGTLVTVSS
0.93	6/6	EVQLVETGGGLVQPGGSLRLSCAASGFNLNSYGISWVRQAPGKGPEWVSVIYSDGRRTFYADQVKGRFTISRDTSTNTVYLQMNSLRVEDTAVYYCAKGQAAGTFDSWGQGTLVTVSS
-0.01	6/6	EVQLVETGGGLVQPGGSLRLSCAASGFELNSYGISWVRQAPGKGPEWVSVIYSDGRRTFYGDSVKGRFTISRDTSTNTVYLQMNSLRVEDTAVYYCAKGMTAGTFDTWGQGTLVTVSS
-1.19	5/6	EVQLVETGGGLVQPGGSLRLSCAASGFDLNEYGISWVRQAPGKGPEWVSVIYADGKRTSYADSVKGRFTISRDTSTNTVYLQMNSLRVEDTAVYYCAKGQNAGTFDVWGQGTLVTVSS
-0.11	6/6	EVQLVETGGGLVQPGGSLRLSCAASGFGLNDYGISWVRQAPGKGPEWVSVIYADGRRTFYGDSVKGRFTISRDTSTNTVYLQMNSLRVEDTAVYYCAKGTAAGTFDSWGQGTLVTVSS
1.59	1/6	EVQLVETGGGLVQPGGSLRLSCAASGFELNSYGISWVRQAPGKGPEWVSVIYSDGRRTFYGDSVKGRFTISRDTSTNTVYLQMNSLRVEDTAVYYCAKGQAAGTFDAWGQGTLVTVSS
0.27	6/6	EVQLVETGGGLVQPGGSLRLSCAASGFELNSYGISWVRQAPGKGPEWVSVIYSDGMRTFYADSVKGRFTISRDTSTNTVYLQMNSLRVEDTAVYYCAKGRTAGTFDSWGQGTLVTVSS
-0.63	6/6	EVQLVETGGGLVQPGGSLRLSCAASGFDLNEYGISWVRQAPGKGPEWVSVIYADGRRTAYADSVKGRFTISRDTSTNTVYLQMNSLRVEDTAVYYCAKGQVAGTFDKWGQGTLVTVSS
not detected	0/6	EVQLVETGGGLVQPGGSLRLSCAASKFDLNMYGSSWVRQAPGKGPEWVSVIYSDGRRTFYQDSVKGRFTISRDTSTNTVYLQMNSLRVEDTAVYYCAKGRAAGTWDSWGQGTLVTVSS
-0.43	6/6	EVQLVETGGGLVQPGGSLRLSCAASGFDLDEYGISWVRQAPGKGPEWVSVIYADGMRKAYADSVKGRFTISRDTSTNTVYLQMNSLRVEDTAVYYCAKGETAGTFDVWGQGTLVTVSS
-0.84	6/6	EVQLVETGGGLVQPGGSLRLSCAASGFDLNEYGISWVRQAPGKGPEWVSVIYADGKRTAYVDSVKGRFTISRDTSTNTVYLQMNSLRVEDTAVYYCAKGNQAGTFDVWGQGTLVTVSS
not detected	0/6	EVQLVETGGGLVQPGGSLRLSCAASGFELNSYGISWVRQAPGKGPEWVSVIYADGRRTFYGDSVKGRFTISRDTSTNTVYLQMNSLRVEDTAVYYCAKGRAAGTNDSWGQGTLVTVSS
0.06	6/6	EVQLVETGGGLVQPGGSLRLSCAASGFDLDEYGISWVRQAPGKGPEWVSVIYADGKRTAYADSVKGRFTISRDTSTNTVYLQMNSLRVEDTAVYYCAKGENAGTFDVWGQGTLVTVSS
0.84	6/6	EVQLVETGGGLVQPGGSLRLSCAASGFDLDEYGISWVRQAPGKGPEWVSVIYADGMRTSYADSVKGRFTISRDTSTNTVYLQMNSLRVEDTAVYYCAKGENAGTFDVWGQGTLVTVSS
-0.09	6/6	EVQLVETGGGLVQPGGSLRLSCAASGFSLNSYGISWVRQAPGKGPEWVSVIYSDGRRTFYDDSVKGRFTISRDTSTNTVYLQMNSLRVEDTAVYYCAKGREAGTFDSWGQGTLVTVSS
-0.69	6/6	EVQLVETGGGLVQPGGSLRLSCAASGFDLNEYGISWVRQAPGKGPEWVSVIYADGKRTFYTDSVKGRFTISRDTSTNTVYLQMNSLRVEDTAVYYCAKGENAGTFDVWGQGTLVTVSS
not detected	0/6	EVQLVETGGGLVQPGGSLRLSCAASGFTLNEYGISWVRQAPGKGPEWVSVIYSDGRRTFYCDSVKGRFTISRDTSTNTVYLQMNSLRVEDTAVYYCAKGPAAGTFDLWGQGTLVTVSS
1.80	4/6	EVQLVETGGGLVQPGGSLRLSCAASGFTLNSYGISWVRQAPGKGPEWVSVIYSDGRRTFYGDSVKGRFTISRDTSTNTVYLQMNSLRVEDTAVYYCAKGRAAGTYDYWGQGTLVTVSS
not detected	0/6	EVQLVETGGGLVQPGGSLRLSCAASGFTLNSYGISWVRQAPGKGPEWVSVIYADGRRTFYGDSVKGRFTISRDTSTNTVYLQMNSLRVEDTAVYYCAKGRAAGTNDSWGQGTLVTVSS
-0.37	6/6	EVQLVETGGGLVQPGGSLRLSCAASGFDLNEYGISWVRQAPGKGPEWVSVIYADGRRTYYADSVKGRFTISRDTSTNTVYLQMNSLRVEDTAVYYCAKGEIAGTFDVWGQGTLVTVSS

3 of these entries, quoted again:

{"VH": "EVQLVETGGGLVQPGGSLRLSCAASGFGLNDYGISWVRQAPGKGPEWVSVIYADGRRTFYGDSVKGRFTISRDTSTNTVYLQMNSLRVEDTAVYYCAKGTAAGTFDSWGQGTLVTVSS", "log10 Kd (nM), mean": "-0.11", "replicates with signal": "6/6"}
{"VH": "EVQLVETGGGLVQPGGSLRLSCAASKFDLNMYGSSWVRQAPGKGPEWVSVIYSDGRRTFYQDSVKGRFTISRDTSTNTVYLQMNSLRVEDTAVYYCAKGRAAGTWDSWGQGTLVTVSS", "log10 Kd (nM), mean": "not detected", "replicates with signal": "0/6"}
{"VH": "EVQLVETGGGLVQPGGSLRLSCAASGFDLDEYGISWVRQAPGKGPEWVSVIYADGKRTAYADSVKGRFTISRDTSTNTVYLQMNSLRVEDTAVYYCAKGENAGTFDVWGQGTLVTVSS", "log10 Kd (nM), mean": "0.06", "replicates with signal": "6/6"}

A sequence measured in both rounds can read differently, since the two assays cover different ranges. Nonspecific signal, from three strains lacking the peptide, appeared in 1% of pairings of all heavy chain designs, centred on 2.08 (5% of these signals below 0.84); values are not corrected for it. The authors' rule: three or more of the six replicates give a measured affinity, fewer mean a poor binder.